Assay results as given in US20230135127A1, “COMPOSITIONS AND METHODS FOR DISEASE TREATMENT AND PREVENTION BY PH MODIFIERS AND/OR CELL PROLIFERATION INHIBITORS” (priority 2021, published 2023).
Counter-ions that a name gives are not always drawn. Like-named read-outs stand apart in the source and are kept apart here.

Test system: proliferating cells in the lung tissue

Row | SMILES | Ki-67+ cells in the lung tissues (IHC) (i.t. HCl or HOAc, i.p. NaOH) | alveolar walls, layers of pneumocytes (saline: multiple layers) | alveolar walls, layers of pneumocytes (mouse, in vivo) | Ki-67+ cells in the lung tissues (IHC) (mouse, in vivo, ip) | Ki-67 staining intensity in lungs (vs saline- or acid-treated mice)
1 | Cl [HCl, hydrochloric acid] | only sporadically detected | a single layer of pneumocytes |  |  | 
2 | CC(=O)O [HOAc, acetic acid] |  |  | a single layer of pneumocytes | only sporadically detected | 
3 | [Na+].[OH-] [NaOH, sodium hydroxide] | abundant | multiple layers of pneumocytes |  |  | stronger
